Experimental findings from article PMC12455397 (Angewandte Chemie (International Ed. in English), 2025) are described below.

Amino acid sequences for entries named in this document (tags omitted). Residues count along the entry.
UniProt Q14145, 321-609 limits assumed: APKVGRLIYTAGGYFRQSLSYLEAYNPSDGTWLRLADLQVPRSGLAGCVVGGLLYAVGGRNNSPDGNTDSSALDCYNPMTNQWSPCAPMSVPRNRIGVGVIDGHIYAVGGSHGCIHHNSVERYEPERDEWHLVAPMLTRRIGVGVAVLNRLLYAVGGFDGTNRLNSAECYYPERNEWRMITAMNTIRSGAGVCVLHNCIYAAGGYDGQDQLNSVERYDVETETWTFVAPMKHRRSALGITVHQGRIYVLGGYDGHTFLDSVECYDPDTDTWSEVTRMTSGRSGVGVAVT

One may read the Ki as a measure of affinity in units of concentration, obtained from inhibition or displacement.

The target in the assay is human Keap1 Kelch (Homo sapiens, UniProt Q14145). Briefly: Fluorescence polarization (FP) competition assay with Cy5-Nrf2 peptide probe. The conditions noted are these: for Ki: read-out: Ki (FP), mean, ≥3 individual measurements, text and figures. For orientation: Fluorescence polarisation rises when a labelled molecule tumbles more slowly, as on binding a larger partner.

In the case of `Cc1cc2c(cc1[C@H](CC(=O)O)c1ccc3ccc(OCC(=O)NC4CCCCCC4)cc3c1)OCO2` (single isomer, unassigned), the inhibitory constant (Ki) came out at 114 nM.

In the case of `Cc1cc2c(cc1[C@@H](CC(=O)O)c1ccc3ccc(OCC(=O)NC4CCCCCC4)cc3c1)OCO2` (single isomer, unassigned), the inhibitory constant (Ki) was 7.9 nM. Moreover, where the note is “Peak 1 vs Peak 2 after chiral HPLC separation”, the “fold difference in affinity (FP) between the enantiomers of 24” value is listed as 14 fold.
